According to patent publication US12150928B2, “Methods of treating sarin exposure with tetrahydrocannabinol and cannabidiol combinations” (dated 2024):

Test system: rats
Test: Onset of cannabinoid and terpene activities in rats (Example 3)
Conditions: for cannabinoid effects observed: oral gavage, more prominent at 8 hours than at 4 hours after dosing

SMILES	effect on body temperature	cannabinoid effects observed	tolerability (terpenes by themselves, sniffing)
C=C(C)[C@@H]1CCC(C)=C[C@H]1c1c(O)cc(CCCCC)cc1O	degree of hypothermia observed with groups receiving CBD was unexpected	hyperthermia, abnormal gait and posture	–
C=CC(C)(O)CCC=C(C)C (stereo not shown)	–	–	rats did not like the smell
CCCCCc1cc(O)c2c(c1)OC(C)(C)[C@@H]1CCC(C)=C[C@@H]21	–	hyperthermia, abnormal gait and posture	–
